Screening results: PubChem BioAssay, National Center for Advancing Translational Sciences (NCATS)
Most compounds without a hit are left out; they make up all but 0.14% or so of the library.
ASM inhibitor – inhibitors of human secretory acid sphingomyelinase | P17405 | 340,000 compounds, 0.006% hits | AID 504937 | Potency, µM (highest dose often 57.5 µM), usual class: inhibitors | placental ASM, HMU-PC fluorogenic substrate, 60 min
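qHTS format. ASM enzyme prepared from human placenta hydrolyses the fluorogenic substrate HMU-PC0 (9 uM final) over 60 min at 37 °C after a 10 min compound preincubation.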
miR-21 reporter – raises the signal of a miR-21 reporter. HeLa miR-21 FLuc reporter, luciferase, 48 h. 340,000 tested, under 10 active. Potency, µM (highest dose often 38.3 µM); active = well fitted rising curve with a large enough effect; inconclusive = small, poorly fitted or top-dose-only effect; inactive = no such curve, though single readings can be large or run the other way;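 note: miR-21 action dims this reporter so a rising signal means less miR-21 action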
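HeLa cells stably expressing CMV-driven firefly luciferase with a downstream miR-21 binding sequence, endogenously expressing miR-21, were treated with titrations (up to about 40uM final) for 48 hours at 37 degree Celsius. Luciferase luminescence was read after lysis.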
GALK inh – inhibitors of human galactokinase; 270,000 compounds, 0.007% hits; P51570; Purified GALK, Kinase-Glo residual ATP luminescence; AID 1868; Potency, µM (doses to about 57.5 µM), most hits filed as inhibitors
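Quantitative HTS: GALK 5 nM, ATP 35 uM, galactose 100 uM, 1 h room temperature, then luciferase-based ATP detection.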
PI4K2A inh – inhibitors of human PI4K2A; Q9BTU6; purified PI4K2A, ADP-Glo luminescence, 1 h; active compounds read low; activity change, negative = inhibition, % at 76.9 µM; 420,000 compounds, 0.13% hits; AID 1346378; in the data active means activity change below about -50%; inconclusive means mostly about -30% to -49%
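Compounds are screened against recombinant PI4K2A using PI as substrate and ATP, the latter dispensed at 300 microM. Reactions run one hour at ambient temperature before ADP-Glo detection; full inhibition defined by wells lacking enzyme.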
A number is an active result; - = inactive; ? = inconclusive; . = no result given; [ ] = remark or other dose. Unless noted, the call rests on the fitted dose curve; in most records, active means well fitted curve in the direction sought with a large enough effect; inconclusive means small, poorly fitted or top-dose-only effect, or another doubt; inactive means no such curve, though single readings can be large; an effect the other way counts as inactive or inconclusive.

SMILES	ASM inhibitor	miR-21 reporter	GALK inh	PI4K2A inh
Cc1nc(-[n+]2nc(-c3ccncc3)nn2-c2ccccc2)sc1C	.	.	.	-73
CCOC(=O)C1=C(C)NC(C)=C(C(=O)OCC)C1c1ccncc1	.	.	.	-76
Cc1ccc(-c2cc3c(nn2)-c2ccccc2C3=O)cc1	-	-	-	-63
O=C1C=CC(=O)c2c(O)c(CO)c(CO)c(O)c21	-	.	.	-53
CCOc1cc(C(=O)Nc2cc(C)ccn2)cc(OCC)c1OCC	-	-	-	-
CCOc1ccc(C(=O)Nc2cc(C)ccn2)cc1	-	-	-	-72
O=C(Nc1cccc(O)c1)C(=O)Nc1ccccn1	.	-	-	-64
Cc1nn(-c2cccc(Cl)c2)c2c1C(c1cccnc1)C(C#N)=C(N)O2 (configuration not stated)	-	-	-	-51
Cc1onc(-c2c(Cl)cccc2Cl)c1C(=O)Cl	.	.	.	-
CCC(C)NC(=O)c1c(F)c(F)c(F)c(F)c1F (configuration not stated)	-	-[7.66 µM]	-	-63
CCC(C)NC(=O)c1ccccc1-c1ccccc1C(=O)NC(C)CC (configuration not stated)	-	-	-	-
c1ccc2nc(-c3nc4ccccc4[nH]3)ccc2c1	-	-	-	-66
NS(=O)(=O)c1cc(C(=O)NN2C[C@H]3[C@H]4CCC(C4)[C@H]3C2)ccc1Cl	.	.	.	-
C[C@H]1C[C@H]2[C@@H]3CCC4=CC(=O)C=C[C@]4(C)[C@H]3C(=O)C[C@]2(C)[C@@]1(O)C(=O)CO	.	.	.	-
CN1[C@@H]2CC[C@H]1CC(NC(=O)n1c(=O)[nH]c3ccccc31)C2 (some centres not stated)	.	.	.	-
CN1CCN(N)CC1	.	.	.	-
O=C(O)c1ccc(N=Nc2c(O)[nH]c3ccccc23)cc1	-	-	.	-62
NC(=O)CC[C@@H]1NC(=O)[C@H](Cc2ccccc2)NC(=O)[C@H](Cc2ccc(O)cc2)NC(=O)CCSSC[C@@H](C(=O)N2CCC[C@H]2C(=O)N[C@@H](CCCN=C(N)N)C(=O)NCC(N)=O)NC(=O)[C@H](CC(N)=O)NC1=O	.	.	.	-
CN(C)[C@@H](CCOc1cccc2ccccc12)c1ccccc1	.	.	.	-
CC(=O)c1c(C)oc2ccc(NS(=O)(=O)c3ccc(O)c(C(=O)O)c3)cc12	-	-	-	-
O=C(O)c1cc(S(=O)(=O)Nc2ccc3oc(=O)sc3c2)ccc1O	-	-	-	-68
Cc1ccc2nc(-c3ccccc3)cn2c1	-	?	-	-70
Cc1ccc2nc(-c3ccc(O)c(O)c3)cn2c1	-	-	-	?
O=C(/C=C\Nc1ccc2c(c1)OCO2)c1ccccn1	-	?	-	-55
O=C(Nc1ccc2c(c1)OCO2)c1ccccn1	-	.	.	-
SMILES	ASM inhibitor	miR-21 reporter	GALK inh	PI4K2A inh
Nc1ccc(N)c(C(=O)O)c1	-	-	-	-66
COc1ccc(OC)c(C(c2c(C)[nH][nH]c2=O)c2c(C)[nH][nH]c2=O)c1	-	-	-	?
COc1ccc(O)c(C(c2c(C)[nH][nH]c2=O)c2c(C)[nH][nH]c2=O)c1	-	-	-	-62
CC(C)(C)c1ccc(-c2nnc(SCC(=O)Nc3ccc(S(=O)(=O)Nc4nccs4)cc3)n2Cc2ccco2)cc1	.	.	.	-56
CC/C(=C\C(=O)c1ccncc1)Nc1ccc(O)cc1	-	-	-	-50
O=C(N/N=C/c1ccc(O)cc1)c1ccncc1	-	-	-	-
CCOC(=O)C1=C(C)OC2(O)c3ccccc3C(=O)C12O (configuration not stated)	-	-	?	-52
CC(=O)C1=C(C)OC2(O)c3ccccc3C(=O)C12O (configuration not stated)	-	-	-	-54
O=S(=O)(O)c1cc(O)c2ccc(Nc3ccccc3)cc2c1	-	.	.	-
COc1ccccc1Nc1ccc2c(O)cc(S(=O)(=O)O)cc2c1	-	.	.	-59
O=C1CC2(CCCC2)CC(=O)N1	.	.	.	-
Nc1ccc2c(c1)C(=O)c1ccccc1-2	-	.	.	-
Nc1ccc2c(c1)C(=O)C(=O)c1ccccc1-2	-	?	6.3µM	?
O=C1C(=O)c2ccc(-c3ccccc3)cc2-c2ccccc21	-	-	?	-63
C#CC(C)(CC)OC(=O)c1ccccc1C(=O)O (configuration not stated)	.	.	.	-
[O-][n+]1cccc(/C(Cl)=N/OC[C@@H](O)CN2CCCCC2)c1	.	.	.	-
CCc1cccc2c(CCO)c[nH]c12	.	.	.	-
CC(C)(C)C1CCC(CC2=C(O)c3ccccc3C(=O)C2=O)CC1 (configuration not stated)	.	.	.	-
Cc1cccc(NC(=O)c2ccc(OC3CSC3)cc2)c1	-	-	-	-50
CC(=O)c1cccc(NC(=O)c2ccc(OC3CSC3)cc2)c1	-	-	-	-
CN(CCC#N)C(=O)COC(=O)c1c2c(nc3ccccc13)/C(=C/c1ccco1)CC2	-	-	-	-53
CC(C)CNC(=O)COC(=O)c1c2c(nc3ccccc13)/C(=C\c1cccs1)CC2	-	.	.	-
CC(=O)N[C@H]1[C@H]([C@H](O)[C@H](O)CO)OC(C(=O)O)=C[C@@H]1N=C(N)N	.	.	.	-
Cc1ccc2c(c1)C(N1CCCC1=O)CC(c1ccco1)N2 (configuration not stated)	-	-	-	-62
O=S(=O)(Nc1ccc(Cc2ccncc2)cc1)c1ccc(Cl)cc1	-	-	-	-
SMILES	ASM inhibitor	miR-21 reporter	GALK inh	PI4K2A inh
O=c1ccc(NS(=O)(=O)c2ccc(Cl)cc2)cn1Cc1ccc(Cl)c(Cl)c1	-	-	-	-59
Cc1ccc(NC(=O)NC2CCCCC2)cc1Cl	-	-	-	-71
CCNC(=O)[C@@H]1CCCN1C(=O)[C@H](CCCN=C(N)N)NC(=O)[C@H](CC(C)C)NC(=O)CNC(=O)[C@H](Cc1ccc(O)cc1)NC(=O)[C@H](CO)NC(=O)[C@H](Cc1c[nH]c2ccccc12)NC(=O)[C@H](Cc1cnc[nH]1)NC(=O)[C@@H]1CCC(=O)N1	.	.	.	-
CCOC(=O)c1sc2nccc(OC)c2c1N=CNOC	-	-	-	-59
Nc1nc2ccccc2n1Cc1ccc(F)cc1	.	.	.	-
Cn1cccc1/C=C1\CCc2ccccc2C1=O	-	-	-	-56
O=C1/C(=C/c2ccco2)CCc2ccccc21	-	-	.	-54
COc1ccc2c(c1)CC/C(=C/c1ccco1)C2=O	-	-	.	-
COc1ccccc1C=C1CCc2ccccc2C1=O	.	.	.	-63
Cn1cccc1/C=C1\Cc2ccccc2C1=O	-	-	-	-
O=C1C(=Cc2cccc(Cl)c2)CCc2ccccc21	.	.	.	-
O=C1C(=Cc2ccccc2Cl)CCc2ccccc21	.	.	.	-78
CCO[C@H](Cc1ccc(OCCc2ccc(OS(C)(=O)=O)cc2)cc1)C(=O)O	.	.	.	-
C[C@@H]1CCN(C(=O)[C@H](CCCN=C(N)N)NS(=O)(=O)c2cccc3c2NC[C@H](C)C3)[C@@H](C(=O)O)C1	.	.	.	-
OC1(c2ccccc2)CCNCC1	.	.	.	-
Cc1ccc(/C=C/c2nc3ccccc3[nH]2)cc1	.	?	.	-67
c1ccc(-c2cn3c(n2)-c2ccccc2C3)cc1	-	-	-	-51
Nc1ncnc2c1ncn2C1OC(CO)C2OC21 (configuration not stated)	.	.	.	-
